Reference: ChEMBL document CHEMBL1137375, “Design, synthesis, and biological evaluation of new 1,8-naphthyridin-4(1H)-on-3-carboxamide and quinolin-4(1H)-on-3-carboxamide derivatives as CB2 selective agonists” (J Med Chem, 2006)

Protein sequences, listed by entry. Tags and fused reporters are not part of them. Lines headed by an entry give the natural chain unless they say otherwise; changes in a name come on top.
UniProt P47746, whole entry: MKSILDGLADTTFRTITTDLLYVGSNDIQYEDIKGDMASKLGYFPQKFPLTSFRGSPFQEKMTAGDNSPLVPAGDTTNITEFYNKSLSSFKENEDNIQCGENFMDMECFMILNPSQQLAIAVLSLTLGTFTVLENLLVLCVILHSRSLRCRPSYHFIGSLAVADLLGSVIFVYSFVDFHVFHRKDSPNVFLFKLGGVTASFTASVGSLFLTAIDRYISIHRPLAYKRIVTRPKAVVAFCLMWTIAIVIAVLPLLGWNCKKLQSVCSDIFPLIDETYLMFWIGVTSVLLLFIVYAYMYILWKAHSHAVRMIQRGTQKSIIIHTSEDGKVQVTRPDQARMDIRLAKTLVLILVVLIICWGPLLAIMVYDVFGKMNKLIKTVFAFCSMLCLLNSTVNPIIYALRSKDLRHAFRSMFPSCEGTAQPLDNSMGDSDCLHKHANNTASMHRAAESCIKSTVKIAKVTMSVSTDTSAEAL
UniProt P47936: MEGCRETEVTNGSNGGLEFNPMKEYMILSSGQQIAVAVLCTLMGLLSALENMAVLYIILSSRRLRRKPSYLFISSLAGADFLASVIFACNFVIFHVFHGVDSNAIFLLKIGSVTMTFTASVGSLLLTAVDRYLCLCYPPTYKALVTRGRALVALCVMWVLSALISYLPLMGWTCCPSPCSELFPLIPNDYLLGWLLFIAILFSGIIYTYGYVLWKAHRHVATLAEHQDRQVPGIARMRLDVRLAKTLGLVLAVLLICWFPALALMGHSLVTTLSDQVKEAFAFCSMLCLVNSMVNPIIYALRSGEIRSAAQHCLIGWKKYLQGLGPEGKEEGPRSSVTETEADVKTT

Key:
Cannabinoid receptor 1 = Cannabinoid receptor 1 (Mus musculus, UniProt P47746); experiment: Displacement of [3H]CP-55940 from CB1 receptor in DBA/J2 mouse brain; format: tissue-based
Outline: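 Membranes (40-60 µg protein) from mouse brain minus cerebellum (CB1) or spleen (CB2), incubated 1 h at 30 °C with 0.5 nM [3H]CP-55,940 in TME buffer (pH 7.4) with 5 mg/mL BSA. GF/C filtration, scintillation counting. IC50 by nonlinear fit, converted to Ki by Cheng-Prusoff; at least three membrane preparations.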

[1] = molecular target: Cannabinoid receptor (Mus musculus) (UniProt P47746+P47936); experiment: Selectivity for DBA/J2 mouse CB2 receptor over CB1 receptor; format: protein assay

Compound `O=C(NC1CCCCC1)c1cn(Cc2ccccc2F)c2nc(Cl)ccc2c1=O` has a Ki (Cannabinoid receptor 1) of 171 nM and a Ratio Ki [1] of 9.5.
